Active and inactive are the calls of the source. The calls are words filed in the database; no cut-off is given here.
Test system: Leucine--tRNA ligase (Staphylococcus aureus)
Experiment: Compound (100 uM) was evaluated for its inhibitory activity against Leucyl-tRNA synthetase from staphylococcus aureus WCUH29; no inhibition

inhibition | Structure (SMILES)
inactive | CC[C@H](C)CC(=O)NS(=O)(=O)CC(=O)N[C@@]1(C(=O)O)[C@@H](OC(=O)C[C@@H](C)CC)C[C@H]2C(C(N)=O)=CN(C)C[C@H]21
inactive | CC[C@H](C)CC(=O)NS(=O)(=O)CC(=O)N[C@]1(C(=O)O)[C@@H]2CN(C)C=C(C(N)=O)[C@@H]2C[C@@H]1O

From ChEMBL document CHEMBL1132771, “Analogues of SB-203207 as inhibitors of tRNA synthetases” (Bioorg Med Chem Lett, 2000)
